The text below walks through data of patent publication US6583179B2, “Substituted aminoalkylamide derivatives as antagonists of follicle stimulating hormone” (Ortho-McNeil Pharmaceutical, Inc., priority 1999, dated 2003).

By UniProt entry, the sequences of proteins in these tests, tags left out. Residues count along the entry.
UniProt P23945, 18-695 limits assumed: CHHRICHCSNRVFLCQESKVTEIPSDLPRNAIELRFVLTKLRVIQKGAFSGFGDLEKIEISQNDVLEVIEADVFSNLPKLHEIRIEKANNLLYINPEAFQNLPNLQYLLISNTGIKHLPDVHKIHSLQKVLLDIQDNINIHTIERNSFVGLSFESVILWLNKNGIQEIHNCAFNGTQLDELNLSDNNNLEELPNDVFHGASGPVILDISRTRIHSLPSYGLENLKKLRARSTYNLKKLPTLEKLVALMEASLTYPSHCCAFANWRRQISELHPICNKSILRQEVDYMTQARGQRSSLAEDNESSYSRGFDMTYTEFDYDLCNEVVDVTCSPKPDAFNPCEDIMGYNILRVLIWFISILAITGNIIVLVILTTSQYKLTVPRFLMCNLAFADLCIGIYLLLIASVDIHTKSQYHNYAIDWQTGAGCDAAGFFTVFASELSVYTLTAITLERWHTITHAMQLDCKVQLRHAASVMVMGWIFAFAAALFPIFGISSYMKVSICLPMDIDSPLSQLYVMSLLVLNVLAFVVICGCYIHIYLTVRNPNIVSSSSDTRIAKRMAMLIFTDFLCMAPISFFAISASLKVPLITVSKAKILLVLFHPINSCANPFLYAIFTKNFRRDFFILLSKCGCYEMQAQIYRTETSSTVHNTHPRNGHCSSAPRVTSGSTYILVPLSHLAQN

This assay has as its target human FSH receptor (Homo sapiens, UniProt P23945). Kind of assay: hFSHR CHO cAMP assay (rhFSHR-cLUC cells, FSH-stimulated cAMP, radioimmunoassay). As to conditions: read-out: EC50 hFSHR CHO cAMP; inhibition of cAMP produced by EC70 dose of FSH (4.85 nM); maximum concentration 50 μM. The text has this: Minimum Essential Medium-Alpha (MEM-alpha), fetal bovine serum (FBS), penicillin, streptomycin, geneticin, trypsin-EDTA, Hanks' Balanced Salt Solution (no Calcium chloride, Magnesium chloride, Magnesium sulfate, or phenol red; Ca-Mg free HBSS) were purchased from Gibco BRL (Gaithersburg, Md.). The cells used for the FSH bioassay (rhFSHR-cLUC) were Chinese Hamster Ovary cells (K-1; ATCC) stably transformed with human FSH receptor (pSVK-FSHr) and a cAMP luciferase reporter gene (responsive CGα-180LUC). Follicle Stimulating Hormone (Metrodin; Fertinex) was purchased from Serono, Ltd. (Norwell, Mass.). […]
Forty-eight hours after the cells were plated in sterile 96-well culture plates (Corning, Corning, N.Y.) the spent media was removed and 50 μl assay media (modified growth media with 2% HIFBS) containing 2 mM IBMX (3-isobutyl-1-methyl-xanthine) was added to the cells. […] The amount of cAMP produced was measured by radioimmunoassay in a FlashPlate (DuPont, Boston, Mass.). […] The FlashPlates were sealed, incubated overnight @ room temperature, and counted in a Packard TopCount (Packard Instrument Co., Meriden, Conn.). The cAMP radioimmunoassay results were calculated using DPM conversion and log-logit transformation of % binding (Excel program). […]
EC50 values were calculated from an analysis of the concentration-inhibition data using a linear analysis of the data transformed to a log-logit format.
For orientation: Changes in cAMP serve as a functional read-out for many G protein-coupled receptors.

For the compound `C[C@@H](CN(CC(=O)NCc1ccc(CN)cc1)S(=O)(=O)c1ccc(-c2cccc3c2sc2ccccc23)cc1)c1ccccc1`, the EC50 (as a rule, the concentration that produces a half-maximal response) is above 50 µM.
